In PubChem BioAssay (Tox21) one finds Potency and activation data, which are given here for 17 molecules.

The chains behind the UniProt entries cited, without tags or fusion partners. Where a name states a change or a piece, a line headed by the entry shows the natural chain unless it says otherwise.
UniProt P22303: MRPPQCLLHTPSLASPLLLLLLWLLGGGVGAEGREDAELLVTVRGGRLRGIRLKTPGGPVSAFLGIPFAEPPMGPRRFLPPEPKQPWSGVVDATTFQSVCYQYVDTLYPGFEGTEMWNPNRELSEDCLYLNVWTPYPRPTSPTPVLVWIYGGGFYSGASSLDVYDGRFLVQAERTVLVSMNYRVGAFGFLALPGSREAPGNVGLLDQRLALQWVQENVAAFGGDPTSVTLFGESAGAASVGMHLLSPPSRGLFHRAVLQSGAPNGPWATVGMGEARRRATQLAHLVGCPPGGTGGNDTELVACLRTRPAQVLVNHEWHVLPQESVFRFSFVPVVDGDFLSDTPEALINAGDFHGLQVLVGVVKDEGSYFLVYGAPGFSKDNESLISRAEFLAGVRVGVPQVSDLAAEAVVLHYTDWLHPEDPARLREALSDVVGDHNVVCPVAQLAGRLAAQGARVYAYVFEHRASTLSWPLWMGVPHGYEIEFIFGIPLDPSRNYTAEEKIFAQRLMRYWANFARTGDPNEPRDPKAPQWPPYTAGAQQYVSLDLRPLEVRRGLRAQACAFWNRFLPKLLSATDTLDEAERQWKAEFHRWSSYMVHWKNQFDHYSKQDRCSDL
UniProt P10635, whole entry, looked up: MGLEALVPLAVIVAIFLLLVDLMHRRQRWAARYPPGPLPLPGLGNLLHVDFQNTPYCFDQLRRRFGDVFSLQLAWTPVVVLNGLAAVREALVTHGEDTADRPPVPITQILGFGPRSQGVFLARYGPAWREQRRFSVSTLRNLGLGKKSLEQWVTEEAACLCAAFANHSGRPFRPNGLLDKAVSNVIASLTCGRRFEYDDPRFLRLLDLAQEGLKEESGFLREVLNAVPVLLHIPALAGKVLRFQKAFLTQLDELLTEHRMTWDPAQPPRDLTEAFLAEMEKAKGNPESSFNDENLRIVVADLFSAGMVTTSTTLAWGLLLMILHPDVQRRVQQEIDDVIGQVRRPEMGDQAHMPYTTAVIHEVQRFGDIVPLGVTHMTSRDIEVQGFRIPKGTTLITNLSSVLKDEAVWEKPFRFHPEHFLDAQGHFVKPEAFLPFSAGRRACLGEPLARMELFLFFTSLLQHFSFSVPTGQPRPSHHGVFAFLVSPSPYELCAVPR
UniProt P33261, whole entry, looked up: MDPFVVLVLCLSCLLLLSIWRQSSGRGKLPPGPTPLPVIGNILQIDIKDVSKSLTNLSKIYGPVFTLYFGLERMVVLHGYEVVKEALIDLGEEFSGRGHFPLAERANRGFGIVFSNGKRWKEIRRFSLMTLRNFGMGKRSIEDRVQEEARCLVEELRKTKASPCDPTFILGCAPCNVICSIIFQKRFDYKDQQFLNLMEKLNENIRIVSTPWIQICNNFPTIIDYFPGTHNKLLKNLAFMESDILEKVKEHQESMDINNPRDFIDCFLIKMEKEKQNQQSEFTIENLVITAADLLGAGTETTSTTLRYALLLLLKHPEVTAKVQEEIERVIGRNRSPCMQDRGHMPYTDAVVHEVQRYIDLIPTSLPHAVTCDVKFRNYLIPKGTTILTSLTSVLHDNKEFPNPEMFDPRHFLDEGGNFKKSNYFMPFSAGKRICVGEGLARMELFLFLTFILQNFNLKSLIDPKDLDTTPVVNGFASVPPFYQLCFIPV
UniProt P11712, whole entry, looked up: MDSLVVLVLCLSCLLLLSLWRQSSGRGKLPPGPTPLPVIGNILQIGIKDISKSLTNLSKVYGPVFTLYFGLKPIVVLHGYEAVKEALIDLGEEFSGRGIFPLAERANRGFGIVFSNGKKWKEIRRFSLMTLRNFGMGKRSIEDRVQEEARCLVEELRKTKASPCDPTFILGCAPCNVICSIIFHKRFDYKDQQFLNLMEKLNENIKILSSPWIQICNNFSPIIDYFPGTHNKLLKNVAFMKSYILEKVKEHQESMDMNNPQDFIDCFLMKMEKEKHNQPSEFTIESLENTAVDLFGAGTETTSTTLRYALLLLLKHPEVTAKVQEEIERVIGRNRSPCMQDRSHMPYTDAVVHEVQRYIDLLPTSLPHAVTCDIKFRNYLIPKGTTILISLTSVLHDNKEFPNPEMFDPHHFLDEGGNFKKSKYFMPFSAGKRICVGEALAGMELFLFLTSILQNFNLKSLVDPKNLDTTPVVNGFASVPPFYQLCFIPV
UniProt Q12809: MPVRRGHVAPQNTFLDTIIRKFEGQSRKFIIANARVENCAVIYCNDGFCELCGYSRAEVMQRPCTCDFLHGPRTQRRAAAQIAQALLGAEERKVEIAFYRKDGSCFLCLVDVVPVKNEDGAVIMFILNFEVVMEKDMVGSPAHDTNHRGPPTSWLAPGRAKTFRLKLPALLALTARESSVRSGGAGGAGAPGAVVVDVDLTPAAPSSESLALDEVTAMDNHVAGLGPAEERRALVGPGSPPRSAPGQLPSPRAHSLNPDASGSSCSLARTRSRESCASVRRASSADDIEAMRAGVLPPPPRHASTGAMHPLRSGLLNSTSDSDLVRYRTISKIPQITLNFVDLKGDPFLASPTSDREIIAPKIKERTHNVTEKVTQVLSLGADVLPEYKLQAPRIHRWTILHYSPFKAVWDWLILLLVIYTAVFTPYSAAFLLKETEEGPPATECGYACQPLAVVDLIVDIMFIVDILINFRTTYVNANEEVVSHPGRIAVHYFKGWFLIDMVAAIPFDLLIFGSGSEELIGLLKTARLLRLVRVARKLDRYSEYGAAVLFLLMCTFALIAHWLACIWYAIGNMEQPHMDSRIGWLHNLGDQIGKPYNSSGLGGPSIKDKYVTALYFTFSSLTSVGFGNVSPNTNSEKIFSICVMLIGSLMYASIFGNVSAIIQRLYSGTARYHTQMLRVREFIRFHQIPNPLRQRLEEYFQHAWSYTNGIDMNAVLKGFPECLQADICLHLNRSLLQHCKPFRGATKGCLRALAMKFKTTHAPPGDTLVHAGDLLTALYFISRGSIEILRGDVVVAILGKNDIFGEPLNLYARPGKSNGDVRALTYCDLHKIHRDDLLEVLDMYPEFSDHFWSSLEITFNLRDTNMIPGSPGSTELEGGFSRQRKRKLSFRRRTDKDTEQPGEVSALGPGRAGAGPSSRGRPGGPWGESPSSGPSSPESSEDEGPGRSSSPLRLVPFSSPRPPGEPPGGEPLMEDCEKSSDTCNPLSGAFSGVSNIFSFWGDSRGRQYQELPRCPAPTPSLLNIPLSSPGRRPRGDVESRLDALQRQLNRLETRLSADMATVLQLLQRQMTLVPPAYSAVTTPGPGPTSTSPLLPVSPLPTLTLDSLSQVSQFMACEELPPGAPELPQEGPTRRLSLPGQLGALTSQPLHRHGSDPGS
UniProt P05177, whole entry, looked up: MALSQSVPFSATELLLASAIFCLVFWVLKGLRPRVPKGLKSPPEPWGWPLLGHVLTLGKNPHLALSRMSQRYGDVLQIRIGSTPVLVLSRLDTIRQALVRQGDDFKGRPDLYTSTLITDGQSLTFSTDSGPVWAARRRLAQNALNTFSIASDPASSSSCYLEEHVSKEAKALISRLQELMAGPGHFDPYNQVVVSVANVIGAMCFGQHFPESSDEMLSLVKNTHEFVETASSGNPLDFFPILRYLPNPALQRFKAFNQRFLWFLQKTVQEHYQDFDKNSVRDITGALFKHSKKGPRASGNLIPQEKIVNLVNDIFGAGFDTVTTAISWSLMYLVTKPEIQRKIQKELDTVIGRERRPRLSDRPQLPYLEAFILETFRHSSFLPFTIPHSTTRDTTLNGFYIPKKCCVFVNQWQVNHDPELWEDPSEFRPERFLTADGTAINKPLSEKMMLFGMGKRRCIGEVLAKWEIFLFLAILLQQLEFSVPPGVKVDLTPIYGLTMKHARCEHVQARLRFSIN

Test [1] concerns the target Acetylcholinesterase (Homo sapiens) (UniProt P22303). Description: Acetylcholinesterase (AChE) small molecule antagonists: enzyme-based qHTS assay (AID 1347397). Note: potency is the fitted concentration of half-maximal effect; nearly all actives have a fitted effect of over 55% in size. Particulars: AChE enzyme activity inhibition. The gist of the method: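 Colorimetric DTNB readout of acetylthiocholine hydrolysis, 10 min at room temperature, after 30 min room-temperature exposure of 50 mU/mL recombinant human enzyme to compound; DMSO vehicle control.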
In general terms: Quantitative high-throughput screening tests each substance at several concentrations.

Test [2] shares this target. As to the kind of experiment: Acetylcholinesterase (AChE) small molecule antagonists: fluorescence cell-based qHTS assay (AID 1347398). Note: potency is the fitted concentration of half-maximal effect; nearly all actives have a fitted effect of over 50% in size. Particulars: SH-SY5Y cells, AChE activity. The gist of the method:
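Cellular AChE activity read as thiocholine from acetylthiocholine hydrolysis, detected by Thiolite Green fluorescence at 490/520 nm after 40 min at room temperature. Compounds were pre-incubated 30 min at 37 C on adherent SH-SY5Y cells.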

Test [3] shares this target. Description: Acetylcholinesterase (AChE) small molecule antagonists: enzyme-based qHTS assay with human liver microsomes (AID 1347399). Note: potency is the fitted concentration of half-maximal effect; nearly all actives have a fitted effect of over 60% in size. Particulars: qHTS inhibition. The gist of the method: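 Recombinant human AChE (50 mU/mL in the enzyme mix) and human liver microsomes (0.25 mg/mL final) were preincubated with compound and NADPH (0.25 mg/mL final) for 30 min at 37 C. Acetylthiocholine/DTNB was then added; thiocholine was read colorimetrically after 10 min at room temperature.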

Test [4] concerns the target Cytochrome P450 2D6 (Homo sapiens) (UniProt P10635). As to the kind of experiment: Cytochrome P450 Family 2 Subfamily D Member 6 (CYP2D6) small molecule antagonists: luciferase reporter qHTS assay (AID 1671196; active = well fitted curve in the direction sought with a large enough effect in the repeat runs; an effect the other way counts as inactive or inconclusive; note: potency is the fitted concentration of half-maximal effect; nearly all actives have a fitted effect of over 50% in size). The note with it: P450-Glo CYP2D6 enzyme assay, luciferin luminescence, 1 h. The essentials: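 CYP2D6 activity was followed as luminescence from its luciferin product after a 1 h NADPH-driven reaction at room temperature. Enzyme-substrate mix and compound were pre-incubated for 10 min, and the signal was read 20 min after adding detection reagent.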

The target in test [5] is Cytochrome P450 2C19 (Homo sapiens) (UniProt P33261). Description: Cytochrome P450 Family 2 Subfamily C Member 19 (CYP2C19) small molecule antagonists: luciferase reporter qHTS assay (AID 1671197; active = well fitted curve in the direction sought with a large enough effect in the repeat runs; an effect the other way counts as inactive or inconclusive; note: potency is the fitted concentration of half-maximal effect; nearly all actives have a fitted effect of over 65% in size). Particulars: P450-Glo CYP2C19 enzyme, luciferin luminescence, 1 h. The essentials:
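P450-Glo CYP2C19 screening system; proluciferin substrate; DMSO compound stocks; 10 min RT preincubation; NADPH regeneration, 1 h at 37C; luciferin detection reagent, 20 min RT; luminescence as RLU.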

The target of test [6] is Cytochrome P450 2C9 (Homo sapiens) (UniProt P11712). Description: Cytochrome P450 Family 2 Subfamily C Member 9 (CYP2C9) small molecule antagonists: luciferase reporter qHTS assay (AID 1671198; active = well fitted curve in the direction sought with a large enough effect in the repeat runs; an effect the other way counts as inactive or inconclusive; note: potency is the fitted concentration of half-maximal effect; nearly all actives have a fitted effect of over 50% in size). The note with it: P450-Glo CYP2C9 enzyme assay, luciferin luminescence. The essentials:
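Enzyme-substrate mix preincubated with compound 10 min at room temperature; reaction started with NADPH regeneration solution, 1 h 37C. Luminescent luciferin product read after 20 min detection reagent.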

Test [7] addresses Voltage-gated inwardly rectifying potassium channel KCNH2 (Homo sapiens) (UniProt Q12809). As to the kind of experiment: Human Ether-a-go-go-Related Gene (hERG) channel small molecule antagonists: fluorescence cell-based qHTS assay (AID 1671200; active = well fitted curve in the direction sought with a large enough effect in the repeat runs; an effect the other way counts as inactive or inconclusive; note: potency is the fitted concentration of half-maximal effect; nearly all actives have a fitted effect of over 50% in size). Particulars: hERG-U2OS cells, FluxOR thallium flux fluorescence. The essentials: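 Cell line hERG-U2OS; dye FluxOR II, 1 h RT dark; Tl+ stimulus; ex 480/em 540 nm, read each second for 2 min.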
A general note: Block of hERG is tested as a sign of cardiac risk.

Test [8] has as its target Cytochrome P450 1A2 (Homo sapiens) (UniProt P05177). As to the kind of experiment: Cytochrome P450 Family 1 Subfamily A Member 2 (CYP1A2) small molecule antagonists: luciferase reporter qHTS assay (AID 1671199; active = well fitted curve in the direction sought with a large enough effect in the repeat runs; an effect the other way counts as inactive or inconclusive). Particulars: P450-Glo CYP1A2 enzyme, luciferin luminescence, 1 h. The gist of the method:
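Luminescence from luciferin formed by CYP1A2 from a proluciferin substrate, read 20 min after detection reagent. Compound was pre-incubated 10 min with enzyme-substrate, and reaction started with NADPH regeneration solution for 1 h at room temperature; furafylline control.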
In general terms: A reporter such as luciferase makes a cellular process visible.

The nature of test [9]: qHTS assay to identify small molecule agonists of the NFkB signaling pathway (AID 1159509; active = well fitted curve in the direction sought with a large enough effect in the signal ratio in the repeat runs, not every such curve was filed as active; the % refers to the signal ratio; note: % is set by controls: 0 for no effect and ±100 for the full control effect). Particulars: NFkB-bla ME-180 cells, beta-lactamase FRET ratio, 5 h. The gist of the method: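 Pathway activation was measured in ME-180 cells stably expressing beta-lactamase under NF-kB response element control. Substrate cleavage was read as the 460/530 nm emission shift after 5 hr compound incubation.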

“And” between values parts separate entries of the source, which are not always exact repeats. Equal values may be shown once. The entries are a selection whose mix differs from that of the whole data set. Results filed as inconclusive are left out. Some structures have more than one record in an assay (separate samples or runs), and their calls can disagree. The source made the active and inactive calls. Unless noted, calls come from the whole dose curve.

On to `CNC(=O)O/N=C/C(C)(C)S(C)(=O)=O`, for which the Potency in [1] was active: 35.7 µM and active: 22.4 µM; in test [2] it was active: 3.57 µM and active: 11.2 µM.

On to `Oc1c(Cl)cc(Cl)c(Cl)c1Cc1c(O)c(Cl)cc(Cl)c1Cl`, for which the Potency in test [1] was active: 11.2 µM and active: 10 µM and active: 9.77 µM; in test [2], active: 70.8 µM.

Regarding `CCOP(=O)(OCC)O/C(=C/Cl)c1ccc(Cl)cc1Cl`, the Potency in test [1] is active: 2 µM; in test [2], active: 1.26 µM; in test [3], active: 7.1 µM.

As to `O=c1[nH]c2ccccc2n1C1CCN(CCCC(c2ccc(F)cc2)c2ccc(F)cc2)CC1`, the Potency in test [4] was active: 2.52 µM and active: 3.89 µM; in test [5], active: 22.4 µM; in test [6], active: 20 µM and active: 15.5 µM.

For `Fc1ccc(C(OCCN2CCN(CCCc3ccccc3)CC2)c2ccc(F)cc2)cc1`, in test [7], the Potency is active: 0.0601 µM.

For `CCN(CC)CCCC(C)Nc1c2ccc(Cl)cc2nc2ccc(OC)cc12` (centres undefined), the Potency in [1] is active: 27.5 µM; in test [2] it was active: 6.92 µM.

Take `COc1ccc2cc3[n+](cc2c1OC)CCc1cc2c(cc1-3)OCO2`: the Potency was active: 2.85 µM and active: 3.47 µM in test [1]; active: 1.43 µM and active: 1.1 µM in [2]; active: 16 µM and active: 24.5 µM in test [3].

Turning to `CN(C)c1ccc2nc3ccc(=[N+](C)C)cc-3sc2c1`, the Potency in test [1] is active: 2.16 µM and active: 2 µM and active: 2.45 µM; in test [2], active: 1.21 µM and active: 894 nM and active: 1.23 µM; in test [3], active: 10.8 µM and active: 6.33 µM and active: 12.3 µM.

`O=[N+]([O-])c1cccc2cccc([N+](=O)[O-])c12`: the Potency in test [5] was active: 40.1 µM; in test [8], active: 3.18 µM.

For the molecule `O=[N+]([O-])c1cc([N+](=O)[O-])c2ccccc2c1`, the Potency in test [5] was active: 20 µM; in test [8], active: 0.0878 µM.

With `c1ccc(C[n+]2cccc3ccccc32)cc1`, the Potency in [1] is active: 28.3 µM; in test [2], active: 10 µM.

Turning to `CO[C@]12C[C@@H](COC(=O)c3cncc(Br)c3)CN(C)[C@@H]1Cc1cn(C)c3cccc2c13`, the results for the Potency in [1], in test [2] and in test [3] were active: 6.17 µM, active: 0.55 µM and active: 27.5 µM, respectively.

Turning to `COc1cc(C(=O)NCc2ccc(OCCN(C)C)cc2)cc(OC)c1OC`, the Potency in test [1] was active: 15.5 µM; in test [2], active: 9.77 µM.

With `CC[N+](CC)(CC)CC`, the activation in [9] (at 61 µM (top of the series)) was inactive: -0.0367%; in test [9] (at 78.8 µM (top of the series)), inactive: 0.134%.

Regarding `Nc1c2ccccc2nc2ccccc12`, the Potency in test [1] is active: 1.11 µM and active: 776 nM; in [2] it was active: 125 nM and active: 27.5 nM; in [3] it was active: 7.01 µM and active: 15.5 µM.

On to `CCCCCCCCCCC[C@@H](C[C@@H]1OC(=O)[C@H]1CCCCCC)OC(=O)[C@H](CC(C)C)NC=O`, for which the Potency in test [1] was active: 3.47 µM.

As for `CNC(=O)O/N=C/C(C)(C)SC`, the Potency in test [1] is active: 18 µM and active: 11.2 µM; in [2], active: 1.27 µM and active: 3.17 µM; in test [3], active: 40.3 µM and active: 31.7 µM.
